Measurements as given in patent publication EP4834897A1, “COMPOUNDS WITH TWO AZAHETEROCYCLES SUBSTITUTED ISOINDOLINONE SKELETON AND USES THEREOF” (dated 2026).

Chains of the proteins cited; added tags and fusions are not shown.
UniProt P15170, whole entry: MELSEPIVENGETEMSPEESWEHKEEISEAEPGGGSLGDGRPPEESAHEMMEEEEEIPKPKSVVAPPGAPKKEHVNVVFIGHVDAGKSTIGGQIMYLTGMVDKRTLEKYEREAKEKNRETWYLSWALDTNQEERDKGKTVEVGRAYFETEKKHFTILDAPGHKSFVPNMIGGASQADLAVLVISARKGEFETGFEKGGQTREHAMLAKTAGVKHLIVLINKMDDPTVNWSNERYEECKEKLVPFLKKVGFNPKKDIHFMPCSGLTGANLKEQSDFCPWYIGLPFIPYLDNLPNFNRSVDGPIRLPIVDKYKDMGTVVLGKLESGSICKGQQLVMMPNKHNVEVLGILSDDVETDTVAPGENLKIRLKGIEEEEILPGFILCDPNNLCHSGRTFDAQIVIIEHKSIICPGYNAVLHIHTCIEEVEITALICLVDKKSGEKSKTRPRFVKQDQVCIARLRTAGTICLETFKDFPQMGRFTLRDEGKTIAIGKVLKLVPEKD
UniProt Q96SW2, whole entry: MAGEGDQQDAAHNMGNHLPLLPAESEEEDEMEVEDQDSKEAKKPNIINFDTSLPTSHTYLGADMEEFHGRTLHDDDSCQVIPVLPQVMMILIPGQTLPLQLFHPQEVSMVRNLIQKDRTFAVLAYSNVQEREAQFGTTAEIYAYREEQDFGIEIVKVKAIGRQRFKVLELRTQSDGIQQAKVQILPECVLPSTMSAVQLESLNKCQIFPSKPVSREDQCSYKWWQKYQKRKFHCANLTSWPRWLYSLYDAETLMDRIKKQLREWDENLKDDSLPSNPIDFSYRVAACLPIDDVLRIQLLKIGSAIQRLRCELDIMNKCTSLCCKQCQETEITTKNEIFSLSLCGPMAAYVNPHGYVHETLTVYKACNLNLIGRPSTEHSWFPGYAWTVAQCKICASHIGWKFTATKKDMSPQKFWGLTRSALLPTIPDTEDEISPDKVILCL
UniProt Q13422, whole entry: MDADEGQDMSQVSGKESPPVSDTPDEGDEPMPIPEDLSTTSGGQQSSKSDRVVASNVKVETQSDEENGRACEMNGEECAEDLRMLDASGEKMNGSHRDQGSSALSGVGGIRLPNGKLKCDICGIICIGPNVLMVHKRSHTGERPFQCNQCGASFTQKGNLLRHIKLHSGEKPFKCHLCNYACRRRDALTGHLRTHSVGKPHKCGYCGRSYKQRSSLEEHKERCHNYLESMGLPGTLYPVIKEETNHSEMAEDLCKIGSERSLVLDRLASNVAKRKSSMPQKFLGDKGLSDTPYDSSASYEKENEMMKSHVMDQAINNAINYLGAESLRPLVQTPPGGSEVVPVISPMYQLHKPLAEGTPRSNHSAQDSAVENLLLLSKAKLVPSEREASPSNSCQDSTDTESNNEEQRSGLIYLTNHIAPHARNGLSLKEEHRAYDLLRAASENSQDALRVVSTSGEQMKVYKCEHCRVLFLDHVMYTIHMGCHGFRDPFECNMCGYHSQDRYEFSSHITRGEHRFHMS
UniProt P30291, whole entry: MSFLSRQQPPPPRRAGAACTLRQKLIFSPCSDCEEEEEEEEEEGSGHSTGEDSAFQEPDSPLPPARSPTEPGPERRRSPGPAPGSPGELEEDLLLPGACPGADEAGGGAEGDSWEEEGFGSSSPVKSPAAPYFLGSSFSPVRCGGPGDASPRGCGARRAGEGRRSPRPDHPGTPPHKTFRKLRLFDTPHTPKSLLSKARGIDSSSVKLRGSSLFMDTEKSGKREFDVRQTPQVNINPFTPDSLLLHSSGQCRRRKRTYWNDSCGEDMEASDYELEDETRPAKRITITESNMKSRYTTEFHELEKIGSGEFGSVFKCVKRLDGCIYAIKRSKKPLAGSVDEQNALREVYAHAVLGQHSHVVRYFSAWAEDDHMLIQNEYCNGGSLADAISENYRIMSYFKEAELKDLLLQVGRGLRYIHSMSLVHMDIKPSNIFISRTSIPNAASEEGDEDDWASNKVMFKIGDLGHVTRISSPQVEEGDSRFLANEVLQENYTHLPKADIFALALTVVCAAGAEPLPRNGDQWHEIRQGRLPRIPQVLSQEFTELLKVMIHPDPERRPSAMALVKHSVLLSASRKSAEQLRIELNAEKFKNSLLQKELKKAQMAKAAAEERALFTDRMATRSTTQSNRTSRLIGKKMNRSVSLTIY
UniProt Q9UKT9, whole entry: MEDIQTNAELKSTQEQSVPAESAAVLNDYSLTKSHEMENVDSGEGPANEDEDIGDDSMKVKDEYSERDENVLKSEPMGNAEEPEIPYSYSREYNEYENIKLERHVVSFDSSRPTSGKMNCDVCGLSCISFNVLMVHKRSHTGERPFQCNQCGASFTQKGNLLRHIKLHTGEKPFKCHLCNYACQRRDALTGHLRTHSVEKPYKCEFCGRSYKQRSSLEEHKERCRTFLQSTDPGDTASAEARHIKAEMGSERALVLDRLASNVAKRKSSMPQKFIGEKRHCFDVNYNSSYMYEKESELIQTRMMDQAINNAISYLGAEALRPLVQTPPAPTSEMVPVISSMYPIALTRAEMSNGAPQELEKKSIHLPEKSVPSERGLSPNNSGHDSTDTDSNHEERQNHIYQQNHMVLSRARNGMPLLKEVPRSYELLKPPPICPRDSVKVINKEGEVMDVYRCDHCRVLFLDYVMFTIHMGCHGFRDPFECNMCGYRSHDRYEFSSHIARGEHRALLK
UniProt Q9UKS7, whole entry: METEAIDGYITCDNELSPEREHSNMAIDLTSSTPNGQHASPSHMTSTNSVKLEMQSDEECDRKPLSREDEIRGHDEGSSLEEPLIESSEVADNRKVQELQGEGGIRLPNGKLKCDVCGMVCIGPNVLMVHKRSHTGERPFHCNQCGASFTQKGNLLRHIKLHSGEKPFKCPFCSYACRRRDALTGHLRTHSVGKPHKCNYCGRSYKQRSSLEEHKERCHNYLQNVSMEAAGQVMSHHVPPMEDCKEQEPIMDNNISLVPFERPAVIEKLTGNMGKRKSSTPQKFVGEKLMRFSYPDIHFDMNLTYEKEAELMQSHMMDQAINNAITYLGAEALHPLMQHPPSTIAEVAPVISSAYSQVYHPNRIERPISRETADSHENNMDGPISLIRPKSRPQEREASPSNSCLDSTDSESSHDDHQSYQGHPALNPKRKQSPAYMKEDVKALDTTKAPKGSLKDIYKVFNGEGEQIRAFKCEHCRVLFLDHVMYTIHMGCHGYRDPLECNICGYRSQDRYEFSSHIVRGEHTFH
UniProt P48729, whole entry: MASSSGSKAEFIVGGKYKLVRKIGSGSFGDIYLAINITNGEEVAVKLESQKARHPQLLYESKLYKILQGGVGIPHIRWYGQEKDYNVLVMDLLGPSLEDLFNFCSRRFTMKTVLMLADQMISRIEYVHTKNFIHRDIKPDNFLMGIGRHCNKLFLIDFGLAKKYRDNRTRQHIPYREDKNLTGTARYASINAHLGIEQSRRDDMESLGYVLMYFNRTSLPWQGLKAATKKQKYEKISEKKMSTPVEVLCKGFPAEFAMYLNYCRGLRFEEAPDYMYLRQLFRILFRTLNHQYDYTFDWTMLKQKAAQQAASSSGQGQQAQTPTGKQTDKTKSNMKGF
UniProt Q16531, whole entry partner: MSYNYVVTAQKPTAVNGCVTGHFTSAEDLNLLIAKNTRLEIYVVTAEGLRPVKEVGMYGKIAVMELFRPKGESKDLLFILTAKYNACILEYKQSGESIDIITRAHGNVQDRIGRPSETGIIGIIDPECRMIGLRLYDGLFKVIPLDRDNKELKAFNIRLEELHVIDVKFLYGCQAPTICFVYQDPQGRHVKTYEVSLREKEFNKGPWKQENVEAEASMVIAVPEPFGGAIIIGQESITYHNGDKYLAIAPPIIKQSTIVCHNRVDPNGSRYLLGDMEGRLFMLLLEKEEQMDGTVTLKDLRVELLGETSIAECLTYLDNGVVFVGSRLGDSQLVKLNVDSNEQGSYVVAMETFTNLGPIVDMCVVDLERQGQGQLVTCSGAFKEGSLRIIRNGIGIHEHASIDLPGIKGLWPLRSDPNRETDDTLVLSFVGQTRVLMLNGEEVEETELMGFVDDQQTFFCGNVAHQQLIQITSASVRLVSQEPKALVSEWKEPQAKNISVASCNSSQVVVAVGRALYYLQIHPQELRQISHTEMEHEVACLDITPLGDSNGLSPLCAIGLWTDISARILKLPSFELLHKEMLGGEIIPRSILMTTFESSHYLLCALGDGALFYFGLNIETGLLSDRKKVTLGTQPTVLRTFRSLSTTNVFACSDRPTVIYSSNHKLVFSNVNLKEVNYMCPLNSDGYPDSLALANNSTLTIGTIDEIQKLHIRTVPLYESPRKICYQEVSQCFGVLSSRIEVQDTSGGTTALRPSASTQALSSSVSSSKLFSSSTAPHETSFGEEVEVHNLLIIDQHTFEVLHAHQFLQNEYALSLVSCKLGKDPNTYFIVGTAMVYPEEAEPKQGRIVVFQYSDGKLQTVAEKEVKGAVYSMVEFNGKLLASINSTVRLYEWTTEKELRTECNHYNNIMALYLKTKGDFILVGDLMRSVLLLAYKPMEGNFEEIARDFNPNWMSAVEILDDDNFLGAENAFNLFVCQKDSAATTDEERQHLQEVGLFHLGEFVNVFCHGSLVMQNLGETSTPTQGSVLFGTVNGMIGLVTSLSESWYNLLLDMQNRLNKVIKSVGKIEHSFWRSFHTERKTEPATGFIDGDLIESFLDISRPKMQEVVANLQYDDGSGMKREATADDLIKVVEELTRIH

biological target: GSPT1 (Homo sapiens, UniProt P15170+Q96SW2); assay: Western blot assay of substrate protein degradation in hPBMCs; settings: 24 hours treatment, compounds at 50 nM and 500 nM (concentration behind the class not stated)

SMILES	substrate protein remaining % (GSPT1)
O=C1CCC(N2Cc3cc(CCCN4CCC(N5CCN(c6cccc(Cl)c6Cl)CC5)C(F)(F)C4)ccc3C2=O)C(=O)N1 (centres unmarked)	A (0% ≤ substrate protein remaining % ≤ 80%)
O=C1CCC(N2Cc3cc(C(=O)N4CCC(N5CCN(c6noc7cc(F)ccc67)CC5)C(F)(F)C4)ccc3C2=O)C(=O)N1 (centres unmarked)	A (0% ≤ substrate protein remaining % ≤ 80%)

biological target: IKZF1 (Homo sapiens, UniProt Q13422+Q96SW2); assay: as above; settings: 24 hours treatment, compounds at 50 nM and 500 nM (concentration behind the class not stated)

SMILES	substrate protein remaining % (IKZF 1)
O=C1CCC(N2Cc3cc(CCCN4CCC(N5CCN(c6cccc(Cl)c6Cl)CC5)C(F)(F)C4)ccc3C2=O)C(=O)N1 (centres unmarked)	A (0% ≤ substrate protein remaining % ≤ 80%)
O=C1CCC(N2Cc3cc(C(=O)N4CCC(N5CCN(c6noc7cc(F)ccc67)CC5)C(F)(F)C4)ccc3C2=O)C(=O)N1 (centres unmarked)	A (0% ≤ substrate protein remaining % ≤ 80%)

biological target: WEE1 (Homo sapiens, UniProt P30291+Q96SW2); assay: as above; settings: 24 hours treatment, compounds at 50 nM and 500 nM (concentration behind the class not stated)

SMILES	substrate protein remaining % (WEE1)
O=C1CCC(N2Cc3cc(CCCN4CCC(N5CCN(c6cccc(Cl)c6Cl)CC5)C(F)(F)C4)ccc3C2=O)C(=O)N1 (centres unmarked)	A (0% ≤ substrate protein remaining % ≤ 80%)
O=C1CCC(N2Cc3cc(C(=O)N4CCC(N5CCN(c6noc7cc(F)ccc67)CC5)C(F)(F)C4)ccc3C2=O)C(=O)N1 (centres unmarked)	B (80%< substrate protein remaining %≤ 100%)

biological target: IKZF3 (Homo sapiens, UniProt Q96SW2+Q9UKT9); assay: as above; settings: 24 hours treatment, compounds at 50 nM and 500 nM (concentration behind the class not stated)

SMILES	substrate protein remaining % (IKZF3)
O=C1CCC(N2Cc3cc(CCCN4CCC(N5CCN(c6cccc(Cl)c6Cl)CC5)C(F)(F)C4)ccc3C2=O)C(=O)N1 (centres unmarked)	B (80%< substrate protein remaining %≤ 100%)
O=C1CCC(N2Cc3cc(C(=O)N4CCC(N5CCN(c6noc7cc(F)ccc67)CC5)C(F)(F)C4)ccc3C2=O)C(=O)N1 (centres unmarked)	B (80%< substrate protein remaining %≤ 100%)

biological target: IKZF2 (Homo sapiens, UniProt Q96SW2+Q9UKS7); assay: as above; settings: 24 hours treatment, compounds at 50 nM and 500 nM (concentration behind the class not stated)

SMILES	substrate protein remaining % (IKZF2)
O=C1CCC(N2Cc3cc(CCCN4CCC(N5CCN(c6cccc(Cl)c6Cl)CC5)C(F)(F)C4)ccc3C2=O)C(=O)N1 (centres unmarked)	B (80%< substrate protein remaining %≤ 100%)
O=C1CCC(N2Cc3cc(C(=O)N4CCC(N5CCN(c6noc7cc(F)ccc67)CC5)C(F)(F)C4)ccc3C2=O)C(=O)N1 (centres unmarked)	B (80%< substrate protein remaining %≤ 100%)

biological target: CK1α (Homo sapiens, UniProt P48729+Q96SW2); assay: as above; settings: 24 hours treatment, compounds at 50 nM and 500 nM (concentration behind the class not stated)

SMILES	substrate protein remaining % (CK1a)
O=C1CCC(N2Cc3cc(CCCN4CCC(N5CCN(c6cccc(Cl)c6Cl)CC5)C(F)(F)C4)ccc3C2=O)C(=O)N1 (centres unmarked)	A (0% ≤ substrate protein remaining % ≤ 80%)
O=C1CCC(N2Cc3cc(C(=O)N4CCC(N5CCN(c6noc7cc(F)ccc67)CC5)C(F)(F)C4)ccc3C2=O)C(=O)N1 (centres unmarked)	B (80%< substrate protein remaining %≤ 100%)

tested on: Human myeloid monocytic leukemia cell (MV-4-11); assay: Tumor cell proliferation inhibition (cell viability assay); settings: MV-4-11 cells; 10 nM; 96 hours

SMILES	Inhibition Rate at 10 nM (%)
O=C1CCC(N2Cc3cc(CCCN4CCC(N5CCN(c6cccc(Cl)c6Cl)CC5)C(F)(F)C4)ccc3C2=O)C(=O)N1 (centres unmarked)	1a4 (20% ≤ 1a4 < 30%)
O=C1CCC(N2Cc3cc(C(=O)N4CCC(N5CCN(c6noc7cc(F)ccc67)CC5)C(F)(F)C4)ccc3C2=O)C(=O)N1 (centres unmarked)	1a6 (40% < 1a6 < 50%)

same assay, conditions: MV-4-11 cells; 500 nM; 96 hours

SMILES	Inhibition Rate at 500 nM (%)
O=C1CCC(N2Cc3cc(CCCN4CCC(N5CCN(c6cccc(Cl)c6Cl)CC5)C(F)(F)C4)ccc3C2=O)C(=O)N1 (centres unmarked)	1a8 (60% ≤ 1a8 < 70%)
O=C1CCC(N2Cc3cc(C(=O)N4CCC(N5CCN(c6noc7cc(F)ccc67)CC5)C(F)(F)C4)ccc3C2=O)C(=O)N1 (centres unmarked)	1a10 (80% ≤ 1a10 < 100%)

tested on: Human acute T lymphocytic leukemia cell (Molt4); assay: as above; settings: Molt4 cells; 10 nM; 96 hours

SMILES	Inhibition Rate at 10 nM (%)
O=C1CCC(N2Cc3cc(C(=O)N4CCC(N5CCN(c6noc7cc(F)ccc67)CC5)C(F)(F)C4)ccc3C2=O)C(=O)N1 (centres unmarked)	1c3 (5% ≤ 1c3 < 10%)

same assay, conditions: Molt4 cells; 500 nM; 96 hours

SMILES	Inhibition Rate at 500 nM (%)
O=C1CCC(N2Cc3cc(C(=O)N4CCC(N5CCN(c6noc7cc(F)ccc67)CC5)C(F)(F)C4)ccc3C2=O)C(=O)N1 (centres unmarked)	1c8 (50% ≤ 1c8 < 60%)

tested on: Human colon cancer cell (SW620); assay: as above; settings: SW620 cells; 10 nM; 96 hours

SMILES	Inhibition Rate at 10 nM (%)
O=C1CCC(N2Cc3cc(CCCN4CCC(N5CCN(c6cccc(Cl)c6Cl)CC5)C(F)(F)C4)ccc3C2=O)C(=O)N1 (centres unmarked)	1d3 (10% ≤ 1d3 < 20%)

same assay, conditions: SW620 cells; 500 nM; 96 hours

SMILES	Inhibition Rate at 500 nM (%)
O=C1CCC(N2Cc3cc(CCCN4CCC(N5CCN(c6cccc(Cl)c6Cl)CC5)C(F)(F)C4)ccc3C2=O)C(=O)N1 (centres unmarked)	1d6 (40% ≤ 1d6 < 50%)

tested on: Human multiple myeloma cell (MM.1S); assay: as above; settings: MM.1S cells; 10 nM; 96 hours

SMILES	Inhibition Rate at 10 nM (%)
O=C1CCC(N2Cc3cc(CCCN4CCC(N5CCN(c6cccc(Cl)c6Cl)CC5)C(F)(F)C4)ccc3C2=O)C(=O)N1 (centres unmarked)	1b4 (20% ≤ 1b4 < 32%)

same assay, conditions: MM.1S cells; 500 nM; 96 hours

SMILES	Inhibition Rate at 500 nM (%)
O=C1CCC(N2Cc3cc(CCCN4CCC(N5CCN(c6cccc(Cl)c6Cl)CC5)C(F)(F)C4)ccc3C2=O)C(=O)N1 (centres unmarked)	1b8 (60% ≤ 1b8 < 70%)

biological target: CRBN (Homo sapiens, UniProt Q96SW2); assay: CRBN binding affinity by HTRF (CEREBLON BINDING kit); settings: CRBN binding, HTRF, compound at 0.5 µM

SMILES	Inhibition Rate at 0.5 µM (%)
O=C1CCC(N2Cc3cc(CCCN4CCC(N5CCN(c6cccc(Cl)c6Cl)CC5)C(F)(F)C4)ccc3C2=O)C(=O)N1 (centres unmarked)	a4 (40% < a4 ≤ 53%)
O=C1CCC(N2Cc3cc(C(=O)N4CCC(N5CCN(c6noc7cc(F)ccc67)CC5)C(F)(F)C4)ccc3C2=O)C(=O)N1 (centres unmarked)	a4 (40% < a4 ≤ 53%)

same assay, conditions: CRBN binding, HTRF, compound at 2 µM

SMILES	Inhibition Rate at 2 µM (%)
O=C1CCC(N2Cc3cc(CCCN4CCC(N5CCN(c6cccc(Cl)c6Cl)CC5)C(F)(F)C4)ccc3C2=O)C(=O)N1 (centres unmarked)	a6 (60% < a6 ≤ 70%)
O=C1CCC(N2Cc3cc(C(=O)N4CCC(N5CCN(c6noc7cc(F)ccc67)CC5)C(F)(F)C4)ccc3C2=O)C(=O)N1 (centres unmarked)	a6 (60% < a6 ≤ 70%)
